From PubChem BioAssay AID504692 (The Scripps Research Institute Molecular Screening Center, 2011)
“And” between values parts separate entries of the source, which are not always exact repeats. Equal entries are not always repeated. Only a part is listed here, and it is no random draw. The source made the active and inactive calls. No stated cut-off is given here; in the data, active means activation mostly above about 9.5% (no sharp cut-off); inactive means mostly below about 7.6%.

The chains behind the UniProt entries cited, without tags or fusion partners.
UniProt P47898, whole entry, looked up: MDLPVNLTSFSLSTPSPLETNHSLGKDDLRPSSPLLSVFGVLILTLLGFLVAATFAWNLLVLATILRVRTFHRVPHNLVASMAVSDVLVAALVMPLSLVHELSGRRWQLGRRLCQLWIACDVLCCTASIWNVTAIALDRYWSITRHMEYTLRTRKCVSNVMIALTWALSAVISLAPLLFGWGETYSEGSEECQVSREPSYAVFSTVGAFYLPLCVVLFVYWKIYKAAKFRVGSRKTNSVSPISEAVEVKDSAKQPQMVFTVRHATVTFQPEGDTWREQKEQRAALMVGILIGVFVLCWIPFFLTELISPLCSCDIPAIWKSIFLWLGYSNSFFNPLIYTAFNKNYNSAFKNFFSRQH

biological target: 5-hydroxytryptamine receptor 5A (Homo sapiens) (UniProt P47898); test: HTR5A agonists in luminescence cell assay, primary screen, counter-screen for OPRM1-OPRD1 heterodimer agonist project, full-deck HTS (AID 504692); conditions: cell-based, at 9.3 µM, hits give high values;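 further: 0% = cells with vehicle only and 100% = reference agonist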

Row | SMILES | activation
1 | c1ccc2c(c1)ncn2CCN1CCCCC1 | inactive: -2.19%
2 | Cc1ccccc1Oc1ccc2c(c1)[C@@H]1C[C@H](N(C)C(=O)c3ccc(C#N)cc3)[C@H]([C@H](C)O)C(=O)N1CC2 | inactive: -3.52%
3 | O=C(Cn1cnc2ccccc21)NC(c1ccccc1)c1ccccc1 | inactive: 0.1%
4 | NC(=O)CC(NC(=O)Cc1ccc(Br)cc1)c1ccc(NC2CCN(Cc3ccccc3)CC2)c([N+](=O)[O-])c1 (stereo unspecified) | inactive: 2.23%
5 | NC(=O)CS(=O)(=O)c1nc2ccccc2n1CC(=O)N1CCCCC1 | inactive: 9.63%
6 | Cc1ccc(S(=O)(=O)N2CCCCC2)cc1NC(=O)Cn1cnc2c1c(=O)n(C)c(=O)n2C | inactive: -5.24%
7 | O=C(CCCCCNC(=O)N1CCn2c1nc1ccccc12)N[C@@H](C(=O)O)c1ccccc1 | inactive: 3.86%
8 | Cc1c2c(nc3ccccc13)SC(C(Cl)Cl)C2 (stereo unspecified) | inactive: -3.31%
9 | COc1ccc2nc(NP(=O)(c3ccccc3)c3ccccc3)sc2c1 | inactive: -3.34%
10 | Cn1c(=O)[nH]c(=O)c2c1nc(CN1CCN(c3ccc(F)cc3)CC1)n2CCN1CCOCC1 | inactive: 0.06%
11 | CCCn1c(=O)[nH]c(=O)c2c1nc(-c1ccc3c(c1)OCCO3)n2CCN1CCOCC1 | inactive: -2.31%
12 | CC(C)N(C(=O)Cn1c(-c2ccccc2Cl)nc2ccccc21)c1ccccc1 | inactive: 0.31%
13 | Cn1c(=O)[nH]c(=O)c2c1nc(N1CCCCCC1)n2CCN1CCCCCC1 | inactive: 1.01%
14 | Cc1ccc(/C=N/NC(=O)Cn2cnc3ccccc32)o1 | inactive: 8.34%
15 | Cc1ccc(NC(=O)Cn2cnc3c(OCc4ccccc4)ncnc32)cc1C | inactive: -1.41%
16 | CSCC[C@H](NC(=O)N1CCn2c1nc1ccccc12)C(=O)NCc1ccccc1 | inactive: -3.06%
17 | C(=N\c1nc2ccccc2n1CCN1CCCCC1)/c1cccs1 | inactive: 3.92%
18 | CCOC(=O)c1cccc(NC(=O)Cn2c(CC(=O)NC)nc3ccccc32)c1 | inactive: -3.17%
19 | COc1cc(I)ccc1[As](=O)(O)O | inactive: -2.23%
20 | c1ccc(CN2CCC(Nc3nc(-c4ccccc4)nc4ccccc34)CC2)cc1 | inactive: 8.91%
21 | CC(O)CNc1nc2ccccc2n1CC(=O)N1CCN(Cc2ccccc2)CC1 (stereo unspecified) | inactive: -1.66%
22 | CCCCNc1nc2ccccc2n1CC(=O)Nc1c(C)cccc1CC | inactive: 3.04%
23 | COc1cccc(NC(=O)[C@@H](NC(=O)N2CCn3c2nc2ccccc23)C(C)C)c1 | inactive: 4.01%

Row | SMILES | activation
24 | O=P1(N(CCCl)CCCl)OCCCN1CCCl (stereo unspecified) | inactive: -1.59%
25 | O=P1(N(CCCl)CCCl)Nc2ccccc2N1 | inactive: -0.77%
26 | Cc1cc2ncn(C3CC(=O)N(C)C3=O)c2cc1C (stereo unspecified) | inactive: -2.95%
27 | COc1ccc(CNC(=O)CCNC(=O)N2CCn3c2nc2ccccc23)cc1 | inactive: 4.71%
28 | C=CCSc1nnc(NC(=O)Cn2cnc3c2c(=O)n(C)c(=O)n3C)s1 | inactive: 0.24%
29 | Cn1c(=O)c2c(nc(NCc3ccccc3)n2CC(N)=O)n(C)c1=O | inactive: -1.86%
30 | CSc1nc(N)nc2c1ncn2CC(=O)NCCCN1CCCC1=O | inactive: 2.9%
31 | Cc1ccc2c(c1)C1CN(C)CCC1N2C(=S)Nc1ccc(Cl)cc1Cl (stereo unspecified) | inactive: 2.32%
32 | Cc1nc2ccccc2n1C1CCN(Cc2nnnn2CCc2ccccc2)CC1 | inactive: 6.53%
33 | Oc1ccccc1CNc1nc2ccccc2n1CCN1CCCCC1 | inactive: 3.54%
34 | COC(=O)C1(C)COP(=O)(N2CCCCCC2)OC1 (stereo unspecified) | inactive: -1.51%
35 | CCC(C(=O)NC1CCCCC1)n1c(SCc2ccccc2F)nc2ccncc21 (stereo unspecified) | inactive: 0.63%
36 | COC(=O)c1ccc(CNC(=O)Cn2cnc3c(SC)nc(N)nc32)cc1 | inactive: 1.86%
37 | c1csc(CNc2nc3ccccc3n2CCN2CCOCC2)c1 | inactive: 3.22%
38 | CC(C)c1ccc(OP(=O)(Nc2ccccn2)Oc2ccccc2F)cc1 (stereo unspecified) | inactive: 8.56%
39 | N=c1n(CCN2CCCCC2)c2ccccc2n1CC(=O)c1cccc([N+](=O)[O-])c1 | inactive: 5.13%
40 | CCC(=O)Nc1nc2ccccc2n1CCN(CC)CC | inactive: 6.16%
41 | COc1ccccc1NC(=O)N1CCn2c(nc3ccccc32)C1 | inactive: -1.35%
42 | Cn1c(=O)c2c(ncn2CC(=O)N2CCN(c3cccc(Cl)c3)CC2)n(C)c1=O | inactive: 0.96%
43 | CC(C)NC(=O)Cn1c(SCC(=O)c2ccc(F)cc2)nc2ccccc21 | inactive: -0.74%
44 | Cc1cc(C)c(CN2CCN(C(=O)Cn3cnc4c(NCc5ccccc5)ncnc43)CC2)c(C)c1 | inactive: 6.82%
45 | Cc1ccc2c(c1)C1CN(C)CCC1N2C(=O)CCCN1C(=O)c2cccc3cccc(c23)C1=O (stereo unspecified) | inactive: -1.76%
46 | ClCCSc1nnc(-c2cccnc2)o1 | inactive: 3.63%

Row | SMILES | activation
47 | Cc1ccsc1/C=N/NC(=O)Cn1cnc2ccccc21 | inactive: -1.68%
48 | CCOC(=O)CC[C@H](NC(=O)Cn1cnc2c(NCc3ccccc3)ncnc21)C(=O)OCC | inactive: 2.82%
49 | CC1(C)c2ccccc2N2CCC(=O)NC21/C=C/c1ccco1 (stereo unspecified) | inactive: -2.57%
50 | Cc1nc2ccccc2n1CC(=O)NCCN1CCCC1 | inactive: -1.05%
51 | Cc1ccc(NC(=O)Cn2cnc3c(=O)n(C)c(=O)n(C)c32)c(C)c1 | inactive: -0.86%
52 | CCC(=O)Nc1cccc(C(=O)/C=C/c2ccc(F)cc2)c1 | inactive: -6.33%
53 | Cc1cccc(CSc2nc3ccncc3n2CC(=O)Nc2cc(C)cc(C)c2)c1 | inactive: 7.93%
54 | Cn1c(=O)c2c(nc(CN3CCC(Cc4ccccc4)CC3)n2CCN2CCOCC2)n(C)c1=O | inactive: 5.61%
55 | CC1CCN(C(=O)Cn2cnc3c2c(=O)n(C)c(=O)n3C)c2ccccc2S1 (stereo unspecified) | inactive: -6.75%
56 | Cc1ccc(Cn2nnnc2CN2CCC(n3nnc4cc(C)ccc43)CC2)cc1 | inactive: 6.39%
57 | C[C@H](NC(=O)N1CCn2c1nc1ccccc12)C(=O)NC1CC1 | inactive: 1.74%
58 | O=C(Cn1c(C(F)(F)F)nc2ccccc21)N1CCCC1 | inactive: 2.84%
59 | Cc1ccc(-c2csc(NCCn3c(C)nc4cc(C(F)(F)F)ccc43)n2)cc1 | inactive: 0.13%
60 | O=C(CCNC(=O)N1CCn2c1nc1ccccc12)NCc1ccc(F)cc1 | inactive: -0.31%
61 | COc1cc(NC(=O)Cn2cnc3c(OCc4ccccc4)ncnc32)cc(OC)c1OC | inactive: 2.61%
62 | CCN(CC)C(=S)SC(NC=O)C(Cl)(Cl)Cl (stereo unspecified) | inactive: -0.85%
63 | C=C(C)Cn1c(=O)c2c(nc3n2CCN3c2cccc(Cl)c2C)n(C)c1=O | inactive: 1.46%
64 | O=C(OC1CN2CCC1CC2)c1cccc2[nH]cnc12 (stereo unspecified) | inactive: -0.81%
65 | O=C(Nc1nc2ccccc2n1CCN1CCOCC1)c1cn(-c2ccccc2)nc1-c1ccccc1 | inactive: -4.68%
66 | COC(=O)[C@H](CC(C)C)NC(=O)Cn1cnc2c(SC)nc(N)nc21 | inactive: 0.01%
67 | O=C(Cn1c2[n+](c3ccc(C(F)(F)F)cc31)CCCCC2)Nc1c(F)cccc1F | inactive: 0.61%
68 | Cn1c(=O)c2c(ncn2CC(=O)Nc2nc(-c3ccccc3Cl)cs2)n(C)c1=O | inactive: 1.31%
69 | O=C(Cn1cnc2c(NCc3ccccc3)ncnc21)NCCCc1ccccc1 | inactive: 0.34%

Row | SMILES | activation
70 | O=C(Cn1c(-c2ccccn2)nc2ccccc21)NCCN1CCOCC1 | inactive: 0.43%
71 | O=[N+]([O-])c1cc([N+](=O)[O-])c(-c2ccn[nH]2)s1 | inactive: 0.63%
72 | COc1ccc(CCNC(=O)[C@@H](NC(=O)N2CCn3c2nc2ccccc23)C(C)C)cc1OC | inactive: 3.18%
73 | CC1c2nc3ccccc3n2C(CC(=O)NCCCN2CCOCC2)C(=O)N1Cc1ccccc1 (stereo unspecified) | inactive: 1.3%
74 | CSc1nc2ccccc2n1CC(=O)Nc1c(C)cccc1C | inactive: -0.66%
75 | CN1CCN(c2nc3c(c(=O)[nH]c(=O)n3C)n2CC(N)=O)CC1 | inactive: -1.64%
76 | Cc1n[nH]c(C)c1S(=O)(=O)N1CCC(C(=O)N2CCn3c2nc2ccccc23)CC1 | inactive: -15.7%
77 | Cc1ccc(SCc2nc3ccccc3n2CC(=O)Nc2c(C)cccc2C)cc1 | inactive: -0.93%
78 | C[As](=O)(O)c1cccc(C(=O)O)c1 | inactive: 4.64%
79 | O=[As](O)(c1ccc(O)cc1)c1ccccc1O | inactive: 1.15%
80 | COc1ccc(NC(=O)N2CCn3c2nc2ccccc23)cc1 | inactive: -0.34%
81 | Cc1ccc(S(=O)(=O)Nc2ccc3c(c2)nc2n3CCN(Cc3ccccc3)C2)cc1 | inactive: -1.78%
82 | O=[N+]([O-])c1ccc(-c2cc([N+](=O)[O-])c(O)c([N+](=O)[O-])c2)cc1 | inactive: -1.43%
83 | Cn1c(=O)c2c(ncn2CC(=O)N/N=C/C(Br)=C/c2ccccc2)n(C)c1=O | inactive: -2.66%
84 | CCN(CC)CCn1c(NCc2ccc3c(c2)OCO3)nc2ccccc21 | inactive: -0.36%
85 | O=C(NCc1ccccc1)N1CCn2c(nc3ccccc32)C1 | inactive: 0.33%
86 | CC(NC(=O)[C@H](C)NC(=O)N1CCn2c1nc1ccccc12)c1ccccc1 (stereo partly specified) | inactive: 1.78%
87 | O=C1Nc2ccccc2C12Nc1ccccc1-c1nc3ccccc3n12 (stereo unspecified) | inactive: 5.31%
88 | Cc1ccccc1OCC(O)Cn1c(=N)n(CCN2CCOCC2)c2ccccc21 (stereo unspecified) | inactive: -1.56% and inactive: 2%
89 | Cc1ccccc1NC(=O)Cn1c(=O)n(C)c2ccccc21 | inactive: 4.16%
90 | C[C@H](NC(=O)N1CCn2c1nc1ccccc12)C(=O)NCc1ccco1 | inactive: -1.61%
91 | O=C(Nc1ccc(F)cc1)N1CCn2c(nc3ccccc32)C1 | inactive: -1.25%
